Yeast UUG start: modulators of start codon recognition fidelity in yeast; AID 602363; activity score, % at 18.7 µM; S. cerevisiae UUG-firefly luciferase reporter, luminescence/redox ratio; actives 0.13% (n = 350,000);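 active = replicate mean at a twofold rise or more, about +100% in these data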;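 note: firefly luciferase made from a UUG start codon reports start codon fidelity; reporter light over untreated wells divided by growth signal over untreated wells; some hits fall short of that in this replicate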
PGC1a acetyl inh: PGC1a acetylation modulation, inhibitor mode; U2OS PGC1a acetylation, AlphaScreen anti-acetyl-lysine; with virally co-expressed GCN5 acetyltransferase; inhibition, % at 15.6 µM; actives 0.17% (n = 350,000); AID 651687;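 active = every replicate shows inhibition of at least 40%; inconclusive = mean inhibition at least 40% but some replicate below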;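 also: 0% = neutral control wells and 100% = positive control wells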
esBAF inh: SWI/SNF esBAF complex inhibition; actives 2% (n = 350,000); reporter increase, % at 12.5 µM; AID 602393; mouse ES cells, Bmi1-luciferase knock-in reporter, 24 h; 100% = twice the neutral-well signal; in the data active = activation above about 40%; inconclusive = no clear call, values can overlap the other calls;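 also: 0% = median of the plate's neutral control wells and 100% = double that signal; a rise in the Bmi1 reporter signal indicates esBAF inhibition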
E-sel inducer: E-selectin induction on HUVECs; P16581; HUVEC E-selectin immunofluorescence imaging; normalized: neutral wells 0, TNF-alpha wells 100; activation, % at 7.58 µM; actives 0.37% (n = 260,000);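 active = mean E-selectin-positive cell signal at least 10% of the positive control, reached in at least 60% of replicates, without over 20% cell loss; inconclusive = no rule given, readout overlaps actives, possibly toxicity-flagged; inactive = the rest, including those meeting only one limit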
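Test system – human umbilical vein endothelial cells (HUVEC), E-selectin induction · Input – 3,000 HUVEC seeded per well · Buffer or medium – EGM-2, gelatin · Compound dosing – single-point compound dose · Detection – immunofluorescence imaging · Measure – percent E-selectin-positive cells · Controls – TNF-alpha high, DMSO low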
Statin myotox sup: suppression of simvastatin myotoxicity; C2C12 myotubes + simvastatin, ATP luminescence, 48 h; scaled: DMSO 0, geranylgeraniol control 100; rescue of ATP level, % at 7.49 µM; actives 0.78% (n = 330,000); AID 602340;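 active = mean ATP rescue above about 67%, or every replicate alone reaching that limit, limit read from the data, passing the limit was not always enough; inconclusive = no clear call, values can overlap the other calls; inactive = mean under the limit and some replicate under it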;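 also: myotubes were challenged with 10 µM simvastatin during compound exposure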
PglD inh: inhibitors of Campylobacter jejuni PglD acetyltransferase. actives 0.098% (n = 360,000). AID 602405. inhibition, % at 12.5 µM. purified PglD enzyme, DTNB colorimetric CoA detection; in the data active = inhibition above about 16%, passing the limit was not always enough; inconclusive = no clear call, values can overlap the other calls
The depositor's hits bear a star; ? = inconclusive; . = no result. Hits are enriched below; roughly 2.8% of the tested compounds scored in any of these assays.

SMILES | Yeast UUG start | PGC1a acetyl inh | esBAF inh | E-sel inducer | Statin myotox sup | PglD inh
CSc1nsc(SCC(=O)NC2CCCCC2)n1 | -8 | 4 | 18 | . | 69* | 1
O=C(CSc1ncn(-c2ccccc2)n1)Nc1ccc2c(c1)OCCO2 | -10 | -16 | -2 | . | 101* | 1
C[C@H](CO)N1C[C@H](C)[C@H](CN(C)S(=O)(=O)c2cccs2)Oc2ncc(-c3ccc(F)cc3)cc2C1=O | -7 | -18 | 4 | 0 | 10 | 3
CSc1nsc(SCC(=O)Nc2ccc3c(c2)OCCO3)n1 | -25 | -10 | 43* | . | -4 | 0
O=C(CSc1ccc2c(c1)OCCO2)Nc1ccc(Br)cc1 | -7 | -6 | 5 | . | 102* | 3
O=C(CSc1ccc2c(c1)OCCO2)Nc1ccc2c(c1)OCO2 | -15 | -12 | 16 | . | . | 1
Cc1ccc(NC(=O)CC2Nc3ccccc3NC2=O)cc1Cl (stereo not drawn) | 6 | -11 | 39 | . | -20 | 0
O=C(CC1Nc2ccccc2NC1=O)Nc1ccc2c(c1)OCO2 (stereo not drawn) | . | 2 | 47* | . | -1 | .
CC(CC(=O)Nc1ccc2c(c1)OCCO2)c1ccccc1 (stereo not drawn) | 0 | -4 | 55* | . | -1 | 6
CCCNC(=O)Nc1ccc2c(c1)C(=O)N(C)[C@@H]1CC[C@@H](CC(=O)NCC3CCCCC3)O[C@H]1CO2 | 7 | -5 | 5 | 0 | 24 | 0
O=C(C[C@H]1C[C@H]2c3cc(NC(=O)Nc4ccccc4)ccc3O[C@H]2[C@H](CO)O1)NC1CCCCC1 | -5 | 4 | 1 | 2 | 5 | 0
CC=Cc1ccc2n(c1=O)C[C@@H]1[C@@H](CO)[C@H](C(=O)N(C)C)N(C(=O)CC3CC3)[C@H]21 (mixture of isomers) | . | -16 | 2 | -2 | 5 | 1
Cc1ccc(NC(=O)CN2C(=O)C3C4C=CC(C4)C3C2=O)cc1 (stereo not drawn) | . | -4 | . | 0 | . | .
O=C(CN1C(=O)C2C3C=CC(C3)C2C1=O)Nc1ccc2c(c1)OCCO2 (stereo not drawn) | -11 | 14 | 41* | . | 2 | 1
O=C(CSc1nc2ccccc2[nH]1)Nc1ccc2c(c1)OCCO2 | -15 | 2 | 17 | . | 117* | 5
C/C(CC(=O)Nc1ccc2c(c1)OCCO2)=N\NC(=O)c1ccccn1 | . | . | 52* | 3 | 7 | .
O=C(CSc1nccn(-c2ccc3c(c2)OCCO3)c1=O)Nc1ccccc1 | . | . | 49* | 0 | 12 | .
Cc1ccc2nc(SCC(=O)Nc3ccc4c(c3)OCCO4)[nH]c2c1 | -42 | 2 | -3 | . | -9 | 0
CCCN1C[C@@H](C)[C@@H](OC)CN(C)C(=O)c2ccc(NC(=O)Nc3c(C)noc3C)cc2OC[C@@H]1C | 2 | -1 | 4 | 0 | -2 | 0
Cc1noc(C)c1NC(=O)NCC[C@@H]1CC[C@H](NC(=O)c2ccccc2)[C@H](CO)O1 | 10 | -5 | 1 | 0 | -4 | -1
Cc1noc(C)c1NC(=O)N[C@H]1CC[C@@H](CC(=O)Nc2ccccc2)O[C@@H]1CO | -3 | -35 | 2 | 0 | -6 | -4
CN(C)C(=O)C[C@H]1CC[C@@H]2[C@H](COC[C@H](O)CN2Cc2nccs2)O1 | -13 | 1 | 0 | 0 | -4 | 3
Cc1ccc(S(=O)(=O)N[C@@H]2C=C[C@H](CC(=O)NC3CCCCC3)O[C@H]2CO)cc1 | -17 | -1 | 5 | 0 | 2 | 1
Cc1ccc(CSCC(=O)Nc2ccc3c(c2)OCO3)cc1 | -12 | -8 | 2 | . | 103* | 4
O=C(CSc1ccccc1)Nc1ccc2c(c1)OCCO2 | -22 | . | 54* | 1 | 9 | 8

Quoted at random: 2 compounds from above.
SMILES | Yeast UUG start | PGC1a acetyl inh | esBAF inh | E-sel inducer | Statin myotox sup | PglD inh
Cc1ccc(NC(=O)CN2C(=O)C3C4C=CC(C4)C3C2=O)cc1 (stereo not drawn) | . | -4 | . | 0 | . | .
CSc1nsc(SCC(=O)NC2CCCCC2)n1 | -8 | 4 | 18 | . | 69* | 1

Full records from above:
Shown for `O=C(CSc1nc2ccccc2[nH]1)Nc1ccc2c(c1)OCCO2` → Yeast UUG start = -15; PGC1a acetyl inh = 2; esBAF inh = 17; E-sel inducer = .; Statin myotox sup = 117*; PglD inh = 5
Shown for `Cc1ccc(CSCC(=O)Nc2ccc3c(c2)OCO3)cc1` → Yeast UUG start = -12; PGC1a acetyl inh = -8; esBAF inh = 2; E-sel inducer = .; Statin myotox sup = 103*; PglD inh = 4

Individual results from the entries so far.
`CC(CC(=O)Nc1ccc2c(c1)OCCO2)c1ccccc1` (stereo not drawn) – esBAF inh: 55*
`O=C(C[C@H]1C[C@H]2c3cc(NC(=O)Nc4ccccc4)ccc3O[C@H]2[C@H](CO)O1)NC1CCCCC1` – Yeast UUG start: -5
`O=C(CSc1ccc2c(c1)OCCO2)Nc1ccc2c(c1)OCO2` – esBAF inh: 16
`Cc1ccc(CSCC(=O)Nc2ccc3c(c2)OCO3)cc1` – Yeast UUG start: -12

Later entries.
SMILES | Yeast UUG start | PGC1a acetyl inh | esBAF inh | E-sel inducer | Statin myotox sup | PglD inh
CC1CCN(C(=O)CSc2nc3ccccc3[nH]2)CC1 | 6 | 8 | 51* | . | -1 | 0
Cc1cc(=O)[nH]c(SCC(=O)NC2CCCCCCC2)n1 | -11 | 6 | 7 | 4 | 6 | 4
Cc1cc(=O)[nH]c(SCC(=O)NC2CCCCCC2)n1 | -24 | 12 | . | 0 | 72* | 1
NC(=O)C1CCN(C(=O)CSc2nc3ccccc3[nH]2)CC1 | -14 | 8 | -11 | . | . | 2
Cc1ccc(S(=O)(=O)N(C)C[C@H]2OCCCC[C@@H](C)Oc3ccc(NS(=O)(=O)c4cn(C)cn4)cc3C(=O)N([C@@H](C)CO)C[C@H]2C)cc1 | 3 | -1 | -4 | . | . | -1
COc1ccc(NC(=O)N[C@@H]2CC[C@H](CCn3cc(-c4ccccn4)nn3)O[C@H]2CO)cc1 | -21 | 2 | 4 | 0 | 4 | -3
O=C(CSc1nnnn1-c1ccc(Cl)cc1)NC(=O)Nc1ccc2c(c1)OCCO2 | -5 | -13 | 56* | . | 52 | -1
Cc1ccc(-n2nnnc2SCC(=O)NC(=O)Nc2ccc3c(c2)OCCO3)cc1 | . | . | ? | . | 8 | .
CN(C(=O)CSc1ccc2c(c1)OCCO2)c1ccccc1 | -11 | 0 | 60* | 0 | 8 | 2
Cc1onc(-c2ccccc2)c1C(=O)OCC(=O)Nc1ccc2c(c1)OCO2 | -2 | 1 | 1 | . | 102* | -3
Cc1onc(-c2ccccc2Cl)c1C(=O)OCC(=O)Nc1ccc2c(c1)OCO2 | -8 | -2 | . | . | . | -1
CCOCCCN1CN(S(=O)(=O)c2ccc(Cl)cc2)c2nc3ccccc3nc21 | -11 | 2 | 28 | . | 133* | 7
CC(C)OCCCN1CN(S(=O)(=O)c2ccc(Cl)cc2)c2nc3ccccc3nc21 | 1 | . | 28 | . | 5 | -4
CC1Cc2ccccc2N1C(=O)C1CCN(S(=O)(=O)Cc2ccccc2)CC1 (stereo not drawn) | -15 | -12 | 0 | . | 103* | -10
CN(C)CCn1c(NC(=O)c2ccc(Cl)cc2)nc2ccccc21 | -22 | -15 | 56* | . | -5 | 0
N#CCCN1CCN(Cn2c3ccccc3c3ccccc32)CC1 | -14 | 6 | 2 | . | 114* | 2
CO[C@@H]1CN(C)C(=O)c2ccc(NC(=O)NC(C)C)cc2OC[C@H](C)N(CCC(F)(F)F)C[C@@H]1C | 0 | -3 | 4 | 0 | 6 | -2
Cc1cccc(NC(=O)Cn2nnc3ccccc32)c1 | -20 | -1 | 63* | -5 | -3 | -3
COC(=O)c1ccc(NC(=O)Cn2nnc3ccccc32)cc1 | 13 | -13 | 71* | . | . | 0
Cc1ccc(NC(=O)Cn2nnc3ccccc32)cc1 | -16 | 0 | . | . | . | -6
O=C(C[C@@H]1CC[C@H]2[C@@H](COC[C@@H](O)CN2Cc2cccc(Cl)c2)O1)NCC1CCCCC1 | 9 | -7 | 7 | 0 | ? | 0
c1ccc2c(CCNc3ncnc4nc[nH]c34)cccc2c1 | -25 | 1 | 38 | . | 86* | -1
COc1ccccc1Cc1c(-c2ccc(OC)c(OC)c2)nc2c3ccccc3ccn12 | 12 | -22 | 12 | 0 | -1 | -1
Fc1ccc(-c2nc3c4ccccc4ccn3c2Cc2cccc(F)c2)cc1 | . | . | . | 0 | . | .
